Amino acid sequences for entries named in this document (tags omitted). Residues count along the entry.
UniProt P01375, 77-233 limits assumed: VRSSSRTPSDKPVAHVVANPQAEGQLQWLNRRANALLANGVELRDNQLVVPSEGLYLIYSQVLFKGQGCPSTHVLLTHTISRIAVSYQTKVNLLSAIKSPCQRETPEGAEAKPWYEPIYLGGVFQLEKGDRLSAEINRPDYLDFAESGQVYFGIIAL

According to US20120258108A1:

Assays:
[1] = target: Recombinant Human TNFα/TNFSF1A (human) (UniProt P01375); assay: cell-based or functional assay
[2] = target: Recombinant Human TNFα/TNFSF1A (human) (UniProt P01375); assay: SPR (BIACORE)

| Substance | TNFα Neutralization Assay EC50 nM (L929 cells) [1] [nM] | Kd [2] [nM] | koff [2] [s⁻¹] | kon [2] [M⁻¹ s⁻¹] |
| --- | --- | --- | --- | --- |
| AB291 (antibody) | 0.058 |  |  |  |
| AB291 (antibody; other documents disagree on this pair) |  | 0.098 | 0.00011 | 1.1e+06 |
